The values below come from paper PMC7105940, “Safety evaluation of FM101, an A3 adenosine receptor modulator, in rat, for developing as therapeutics of glaucoma and hepatitis” (EXCLI Journal, 2020).

Chains of the proteins cited; added tags and fusions are not shown.
UniProt P0DMS8, whole entry: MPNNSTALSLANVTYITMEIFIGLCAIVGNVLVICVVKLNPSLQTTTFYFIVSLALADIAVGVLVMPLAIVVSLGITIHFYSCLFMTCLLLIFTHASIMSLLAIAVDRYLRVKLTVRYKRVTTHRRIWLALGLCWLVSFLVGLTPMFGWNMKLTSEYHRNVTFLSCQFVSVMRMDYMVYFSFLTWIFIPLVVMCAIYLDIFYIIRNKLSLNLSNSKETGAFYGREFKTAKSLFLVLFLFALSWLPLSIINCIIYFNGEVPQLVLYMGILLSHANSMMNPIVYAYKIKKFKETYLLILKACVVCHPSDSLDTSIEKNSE

SMILES strings stand for the structures.

This assay deals with T1, A3 adenosine receptor (human A3AR) (Homo sapiens, UniProt P0DMS8).
T1 construct: gene ADORA3
The experiment in a line: PathHunter beta-arrestin translocation antagonism vs 2-Cl-IB-MECA in CHO-K1 cells expressing human A3AR; also cAMP HTRF agonism (EC50 […]). The class given is cell-based. A general note: In TR-FRET formats the signal depends on donor and acceptor labels being close together.

Turning to `O[C@@H]1[C@H](O)CS[C@H]1n1cnc2c(NCc3cccc(Cl)c3)nc(Cl)nc21` [FM101, [(2R,3R,4S)-2-[2-chloro-6-(3-chlorobenzylamino)-9H purine-9-yl]-tetrahydrothiophene-3,4-diol]], the concentration for half-maximal inhibition (IC50) (as a rule, the concentration that gives 50% inhibition) came to 44 nM.
